Assay results reported in PubChem BioAssay AID1347404 (Pan Lab, Icahn School of Medicine at Mount Sinai, 2020).
The entries are a selection whose mix differs from that of the whole data set. Activity calls are given as the source filed them. Cut-off read from the data, not from the text of the source: active = inhibition above about 25%; inactive = the rest.

The chains behind the UniProt entries cited, without tags or fusion partners.
UniProt P62877, whole entry, looked up: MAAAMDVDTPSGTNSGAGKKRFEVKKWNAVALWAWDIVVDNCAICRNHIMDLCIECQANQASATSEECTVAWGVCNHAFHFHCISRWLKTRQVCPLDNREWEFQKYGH
UniProt Q13616, whole entry, looked up: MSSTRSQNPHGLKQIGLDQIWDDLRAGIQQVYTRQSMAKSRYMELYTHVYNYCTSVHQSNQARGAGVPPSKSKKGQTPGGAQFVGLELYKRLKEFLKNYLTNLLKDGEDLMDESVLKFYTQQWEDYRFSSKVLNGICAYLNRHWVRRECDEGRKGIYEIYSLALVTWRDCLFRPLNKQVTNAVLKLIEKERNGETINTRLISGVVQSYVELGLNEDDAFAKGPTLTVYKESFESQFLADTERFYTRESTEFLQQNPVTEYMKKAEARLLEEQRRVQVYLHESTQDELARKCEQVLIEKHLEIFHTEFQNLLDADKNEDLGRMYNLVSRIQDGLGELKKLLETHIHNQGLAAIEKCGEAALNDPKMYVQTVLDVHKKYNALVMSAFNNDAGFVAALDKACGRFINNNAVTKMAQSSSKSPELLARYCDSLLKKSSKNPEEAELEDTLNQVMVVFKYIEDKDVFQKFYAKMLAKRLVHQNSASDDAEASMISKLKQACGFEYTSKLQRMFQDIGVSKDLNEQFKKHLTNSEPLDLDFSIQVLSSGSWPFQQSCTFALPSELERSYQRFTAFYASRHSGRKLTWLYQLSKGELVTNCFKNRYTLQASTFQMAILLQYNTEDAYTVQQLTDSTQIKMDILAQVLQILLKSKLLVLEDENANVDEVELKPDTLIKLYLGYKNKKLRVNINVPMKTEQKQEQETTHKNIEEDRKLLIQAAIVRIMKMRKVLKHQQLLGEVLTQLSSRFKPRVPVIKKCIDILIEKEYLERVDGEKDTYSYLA

Molecular target: E3 ubiquitin-protein ligase RBX1 (Homo sapiens) + Cullin-1 (Homo sapiens) (UniProt P62877+Q13616)
Experiment: inhibitors of human ROC1-CUL1 ubiquitin ligase activity (AID 1347404)
Details: in vitro K48 di-Ub FRET, acceptor:donor ratio, 45 min; at 10 µM; stronger effect = higher value

Row | SMILES | inhibition
1 | O=[N+]([O-])c1cc2c(c([N+](=O)[O-])c1)-c1c(cc([N+](=O)[O-])cc1[N+](=O)[O-])C2=Cc1cccs1 | inactive: -9.96%
2 | Cc1oc2cc([N+](=O)[O-])c(O)c([N+](=O)[O-])c2c1[N+](=O)[O-] | active: 85.2%
3 | CN(c1c([N+](=O)[O-])cc([N+](=O)[O-])c(N)c1[N+](=O)[O-])[N+](=O)[O-] | inactive: -0.662%
4 | CC(=O)N1CN([N+](=O)[O-])CCN([N+](=O)[O-])C1 | inactive: 5.35%
5 | O=[N+]([O-])c1cc([N+](=O)[O-])c(-c2cnn(-c3ccccc3)c2)c([N+](=O)[O-])c1 | inactive: 0.288%
6 | CN1CCCCC1COC(=O)C1(O)c2ccccc2CCc2ccccc21 (stereo unspecified) | inactive: 6.38%
7 | C=CCN1CCN(CCOC(=O)C(O)(c2ccccc2)c2ccccc2)CC1 | inactive: 17%
8 | COc1ccc(OP(C)(=O)Nc2cccc(Br)c2)cc1 (stereo unspecified) | inactive: -8.45%
9 | O=[N+]([O-])C1([N+](=O)[O-])COCOC1 | inactive: -6.15%
10 | CCCCCOc1ccc(NP(C)(=O)Oc2ccc(Cl)cc2Cl)cc1 (stereo unspecified) | inactive: -2.42%
11 | CC(C)N1C(=O)CC2(CCN(CCOC(=O)C(O)(c3ccccc3)c3ccccc3)CC2)C1=O | inactive: 7.09%
12 | CN(C)c1c([N+](=O)[O-])cc([N+](=O)[O-])c(N(C)[N+](=O)[O-])c1[N+](=O)[O-] | inactive: -2.54%
13 | CC(C)N1C(=O)CC2(CCN(CCOC(=O)C(O)(c3ccccc3)C3CCCCC3)CC2)C1=O (stereo unspecified) | inactive: -7.5%
14 | O=[N+]([O-])C1([N+](=O)[O-])CCCc2c1no[n+]2[O-] | inactive: 4.52%
15 | CN1CCCCC1COC(=O)C1(O)c2ccccc2CCc2ncccc21 (stereo unspecified) | inactive: -3.3%
16 | N1=Nc2nonc2N=Nc2nonc21 | inactive: 3.96%
